Several values for one entry are separate records, joined by “and”; a condition that tells them apart may be missing. Identical values can stand only once. Counter-ions that a name gives are not always drawn. Like-named read-outs stand apart in the source and are kept apart here.
Experiments:
ABCB1 = ABCB1 (Homo sapiens, UniProt P08183); experiment: cell-based
ABCG2 = ABCG2 (Homo sapiens, UniProt Q9UNQ0); experiment: Uptake and efflux assay, Ig-MXP3 vs parental Igrov1 cells; conditions: primary efflux screen, 100 nM substrate compared

The chains behind the UniProt entries cited, without tags or fusion partners. Where a name states a change or a piece, a line headed by the entry shows the natural chain unless it says otherwise.
UniProt P08183, whole entry: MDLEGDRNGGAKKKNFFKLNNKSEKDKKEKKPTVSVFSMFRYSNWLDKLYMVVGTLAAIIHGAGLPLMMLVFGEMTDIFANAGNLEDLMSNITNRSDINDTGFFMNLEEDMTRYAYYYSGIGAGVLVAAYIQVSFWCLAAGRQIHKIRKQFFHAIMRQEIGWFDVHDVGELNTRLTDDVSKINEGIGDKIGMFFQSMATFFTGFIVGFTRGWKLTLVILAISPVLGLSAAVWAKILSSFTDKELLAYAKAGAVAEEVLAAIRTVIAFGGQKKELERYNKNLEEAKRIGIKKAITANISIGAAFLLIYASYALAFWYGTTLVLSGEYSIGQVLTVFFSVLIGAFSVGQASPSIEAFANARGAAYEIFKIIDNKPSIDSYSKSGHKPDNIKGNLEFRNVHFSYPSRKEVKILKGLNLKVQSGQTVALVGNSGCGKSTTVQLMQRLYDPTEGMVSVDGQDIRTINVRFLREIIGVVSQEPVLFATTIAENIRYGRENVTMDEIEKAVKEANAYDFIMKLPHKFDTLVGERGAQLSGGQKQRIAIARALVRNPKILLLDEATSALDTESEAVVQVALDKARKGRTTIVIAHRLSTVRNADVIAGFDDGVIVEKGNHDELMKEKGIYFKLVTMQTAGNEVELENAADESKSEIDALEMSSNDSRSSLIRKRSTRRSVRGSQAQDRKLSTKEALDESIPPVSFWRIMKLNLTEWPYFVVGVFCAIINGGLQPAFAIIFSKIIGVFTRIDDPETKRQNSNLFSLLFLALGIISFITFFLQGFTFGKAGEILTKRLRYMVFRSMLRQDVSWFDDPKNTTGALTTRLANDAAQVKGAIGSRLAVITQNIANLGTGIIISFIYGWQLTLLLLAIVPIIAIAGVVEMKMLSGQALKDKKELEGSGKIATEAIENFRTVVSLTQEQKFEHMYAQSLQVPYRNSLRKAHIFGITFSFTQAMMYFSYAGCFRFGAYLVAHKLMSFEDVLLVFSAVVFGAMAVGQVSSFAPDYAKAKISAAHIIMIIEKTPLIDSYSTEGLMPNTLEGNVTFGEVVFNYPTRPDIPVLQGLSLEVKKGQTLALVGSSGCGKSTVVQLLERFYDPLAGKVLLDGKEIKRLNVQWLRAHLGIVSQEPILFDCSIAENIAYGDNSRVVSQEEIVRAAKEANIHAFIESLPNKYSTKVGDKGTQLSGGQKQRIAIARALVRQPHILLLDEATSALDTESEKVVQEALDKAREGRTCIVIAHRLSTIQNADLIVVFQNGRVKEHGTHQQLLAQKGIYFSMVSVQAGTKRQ
UniProt Q9UNQ0: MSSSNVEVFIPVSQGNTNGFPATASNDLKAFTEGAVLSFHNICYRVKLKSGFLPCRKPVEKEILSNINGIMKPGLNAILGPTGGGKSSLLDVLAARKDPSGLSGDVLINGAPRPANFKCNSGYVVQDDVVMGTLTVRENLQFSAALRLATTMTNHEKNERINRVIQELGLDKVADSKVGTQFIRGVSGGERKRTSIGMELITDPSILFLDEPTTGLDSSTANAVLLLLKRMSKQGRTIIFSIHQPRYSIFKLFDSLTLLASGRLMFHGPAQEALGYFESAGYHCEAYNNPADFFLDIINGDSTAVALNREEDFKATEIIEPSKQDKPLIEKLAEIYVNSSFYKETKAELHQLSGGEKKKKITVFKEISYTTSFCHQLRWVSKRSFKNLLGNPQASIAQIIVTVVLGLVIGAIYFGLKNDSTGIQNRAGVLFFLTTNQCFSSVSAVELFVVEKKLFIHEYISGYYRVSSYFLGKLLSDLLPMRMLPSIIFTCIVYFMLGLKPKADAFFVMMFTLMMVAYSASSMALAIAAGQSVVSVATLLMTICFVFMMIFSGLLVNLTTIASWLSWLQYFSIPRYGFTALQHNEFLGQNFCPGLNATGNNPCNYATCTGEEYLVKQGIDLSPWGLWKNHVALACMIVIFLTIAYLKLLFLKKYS

Molecule | IC50 (ABCB1) | IC50 (ABCB1; IC50, inhibition of D2390 efflux, B1, substrate D2390 (BODIPY FL EDA) 500 nM, mean ± SD, n ≥ 2) [nM] | IC50 (ABCB1; IC50, inhibition of T3168 efflux, B1, substrate T3168 (JC-1) 500 nM, mean ± SD, n ≥ 2) [nM] | efflux by ABCG2 (in words) (ABCG2)
COC(=O)C1=C(C)NC(C)=C(C(=O)OCCN(C)Cc2ccccc2)C1c1cccc([N+](=O)[O-])c1 (stereo not shown) [Nicardipine, nicardipine hydrochloride] | 1100 nM and 6800 nM | 1200 ± 900 | 3700 ± 800 | –
BODIPY FL prazosin [B7433] | – | – | – | pan-ABCB1, -ABCC1, and -ABCG2 activity
